Assay results published in patent US8664201B2 (priority 2008, dated 2014).

Experiments:
[1] = test system: B16 Melanoma; test: s.c. B16 melanoma; format: in vivo, mice
[2] = test system: Lewis Lung Carcinoma; test: Lewis lung carcinoma, s.c. implant, IP treatment; format: in vivo, mice

Measured: Tumor-free survivors

NP(=O)(O)N(CCCl)CCCl
0/10: [1]; dosage 30 (mg mg^-1), Day 2 Q5 min × 7 | [1]; dosage 200 (mg mg^-1), Day 2 single dose | [2]; 30 mg/kg/dose IP, Day 2 Q5 min × 7 | [2]; 200 mg/kg/dose IP, Day 2 single dose
